Data as given in patent publication US10092537B2, “Use for PAI-1 inhibitor” (RENASCIENCE CO., LTD., priority 2013, dated 2018).

Test system: Her2-A20 cell
Test: Her2-A20 cell subcutaneous tumor, Herceptin and compound c (Experimental Example 19)
Assay type: in vivo, BALB/c-nude mice
Details: Herceptin alone; results of Experimental Examples 18 to 20
Experimental: At first, A20 cell line (mouse B lymphoma) was transfected with human Her2 cDNA using MIGR1 vector to prepare transformed cells (hereinafter, “Her2-A20 cell”). The Her2-A20 cells (5×10^6) were subcutaneously inoculated into BALB/c-nude mice. When the tumor size became 30 mm^3 or more (day 0), Herceptin, a human anti-HER2 antibody, (20 mg/kg/day) was intraperitoneally administered once, and oral administration of compound c (10 mg/kg/day) or physiological saline was started at the same time. Compound c or physiological saline was administered once a day, 5 doses in total (day 0 to day 4). In the following week, Herceptin (20 mg/kg/day) was intraperitoneally administered once, and oral administration of compound c or physiological saline was started at the same time. Compound c or physiological saline was administered once a day, 7 doses in total (day 7 to day 13). The group to which Herceptin and compound c were administered in combination is referred to as “compound c-combined group,” and the group to which Herceptin and physiological saline were administered in combination is referred to as “compound c-non-combined group.” The group to which physiological saline alone was administered without Herceptin is referred to as “placebo group.” The number n is 3 for the compound c-combined group, 4 for the compound c-non-combined group, and 3 for the placebo group.

**Q.** Which “therapeutic effect on a tumor” value does the source give for “Herceptin: Herceptin, a human anti-HER2 antibody [reference compound]” here?
**A.** does not produce a therapeutic effect
